According to publication PMC12064818, “A general assay platform to study protein pharmacology using ligand-dependent structural dynamics” (Nature Communications, 2025):
pEC50, pIC50: −log10 of the molar value.

Experiments:
PKA-N-HiBiT [1] = target: T1, PKA-N-HiBiT (Homo sapiens, UniProt P17612); assay: biochemical
PKA-N-HiBiT [2] = target: T1, PKA-N-HiBiT; assay: PKA peptide phosphorylation, Kinase-Glo Plus (KGP) assay, PKA-N-HiBiT
DHFR-C-HiBiT [3] = target: T2, DHFR-C-HiBiT (Homo sapiens, UniProt P00374); assay: biochemical
T2 sequence (P00374 2-187): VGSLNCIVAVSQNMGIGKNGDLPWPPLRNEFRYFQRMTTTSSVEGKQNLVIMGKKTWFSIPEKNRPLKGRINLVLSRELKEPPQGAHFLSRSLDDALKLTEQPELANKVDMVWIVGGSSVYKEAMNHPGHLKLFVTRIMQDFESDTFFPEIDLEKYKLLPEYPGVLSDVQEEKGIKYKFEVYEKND

[4] = target: T3, endogenous DHFR-C-HiBiT in HEK293 cell lysate (Homo sapiens, UniProt P00374); assay: SDR assay, cellular lysate from DHFR C-terminus HiBiT gene edited HEK293 cells; settings: pSDR50 (lysate), Mean, 1:100 lysate (~0.2 nM) without added NADPH
T3 sequence (P00374 1-187): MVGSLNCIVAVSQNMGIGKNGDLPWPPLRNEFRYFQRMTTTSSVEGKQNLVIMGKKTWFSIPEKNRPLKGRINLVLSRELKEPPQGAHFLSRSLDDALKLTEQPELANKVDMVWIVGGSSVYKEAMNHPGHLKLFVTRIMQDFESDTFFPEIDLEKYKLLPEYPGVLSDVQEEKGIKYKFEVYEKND

DHFR-C-HiBiT [5] = target: T2, DHFR-C-HiBiT; assay: Dihydrofolate reductase enzymatic absorbance assay

Row | pEC50 (DHFR-C-HiBiT [3]) | pEC50 [4] | pIC50 (DHFR-C-HiBiT [5]) | Structure (SMILES) | pEC50 (PKA-N-HiBiT [1]) | pIC50 (PKA-N-HiBiT [2])
1 | – | – | – | CCN1CCN(Cc2ccc(NC(=O)Nc3ccc(Oc4cc(NC)ncn4)cc3)cc2C(F)(F)F)CC1 [AST-487] | 4.72 | 3.95
2 | – | – | – | Cc1[nH]c(/C=C2\C(=O)Nc3ccc(S(=O)(=O)Cc4c(Cl)cccc4Cl)cc32)c(C)c1C(=O)N1CCC[C@@H]1CN1CCCC1 [PHA-665752] | 4.32 | –
3 | 5.37 | 6.10 | 5.00 | Nc1nc2[nH]cc(CCc3ccc(C(=O)N[C@@H](CCC(=O)O)C(=O)O)cc3)c2c(=O)[nH]1 [pemetrexed] | – | –
